By UniProt entry, the sequences of proteins in these tests, tags left out.
UniProt P21554, whole entry: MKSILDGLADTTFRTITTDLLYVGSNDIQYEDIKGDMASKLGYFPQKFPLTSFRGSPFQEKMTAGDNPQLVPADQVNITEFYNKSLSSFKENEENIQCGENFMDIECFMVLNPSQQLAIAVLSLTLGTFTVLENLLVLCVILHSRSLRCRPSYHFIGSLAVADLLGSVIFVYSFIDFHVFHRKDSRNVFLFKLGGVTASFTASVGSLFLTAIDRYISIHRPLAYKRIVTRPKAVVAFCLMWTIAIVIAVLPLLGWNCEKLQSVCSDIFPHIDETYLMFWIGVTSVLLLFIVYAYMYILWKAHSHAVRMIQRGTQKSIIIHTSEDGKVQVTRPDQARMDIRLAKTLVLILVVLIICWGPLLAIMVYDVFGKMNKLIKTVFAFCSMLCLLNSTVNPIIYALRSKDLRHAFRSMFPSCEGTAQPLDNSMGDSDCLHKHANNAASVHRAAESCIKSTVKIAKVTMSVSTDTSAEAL

According to ChEMBL document CHEMBL1136929 (J Med Chem, 2009):

Molecular target: Cannabinoid receptor 1 (Homo sapiens, UniProt P21554)
Experiment: Displacement of [3H]CP-55940 from human recombinant CB1 receptor expressed in HEK293 cells
Assay type: cell-based
Procedure, shortened: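 HEK-293 membranes expressing human recombinant CB1 (Bmax 2.5 pmol/mg) or CB2 (Bmax 4.7 pmol/mg). Radioligand [3H]CP55,940 at 0.14 nM for CB1 and 0.084 nM for CB2. Nonspecific binding defined with 100 nM WIN55212-2. Incubated with increasing compound concentrations for 90 min at 30 °C. IC50 converted to Ki by Cheng-Prusoff. At least 3 experiments in duplicate.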

Q: With `Cc1ccc(Cn2nc(C(=O)N[C@@H]3C(C)(C)[C@@H]4CC[C@@]3(C)C4)cc2-c2ccc(Cl)c(C)c2)cc1` [SR-144528] as the compound, how does the Ki read?
A: 437 nM
